Assay [1] concerns the target soluble guanylate cyclase (human GUCYA3 and GUCYB3) overexpressed in CHO cells (Homo sapiens (Human), UniProt Q02108+Q02153). Briefly: CHO cellular assay (cGMP production, Cisbio cGMP HTRF kit). To be noted: CHO GUCY clone 8E10, cGMP production, assay buffer with 1 mM IBMX and 20 uM ODQ, 1 h room temperature; minimum quantification limit 0.5 nM (listed 0.5 nM means ≤0.5 nM). The class given is cell-based. The source says:
(§1) Chinese hamster ovary (CHO) cells overexpressing soluble guanylate cyclase were generated to test the effect of sGC activators in a cellular context. Human cDNAs for GUCYA3 (RefSeq: NM_000856.3) and GUCYB3 (RefSeq: NM_000857.1) were amplified by PCR from a HUVEC (Human Umbilical Vein Endothelial Cells) cDNA library and cloned into mammalian expression vectors. CHO K1 cells (ATCC CCL-61) were transfected using Lipofectamine 2000 following manufacturer's instructions and stably expressing clones were identified by antibiotic selection. CHO GUCY clone 8E10 was used for subsequent experiments. Cells were seeded at a density of 3000 cells/well in white 384-well proxyplates (Perkin Elmer) and incubated overnight, then the medium was removed and cells were washed with assay buffer (HBSS, 0.1% BSA. 1 mM IBMX, 20 uM ODQ). sGC activators were serially diluted in DMSO, then diluted in assay buffer prior to adding to cells (10 ul/well, final DMSO concentration 0.5%). Cells were incubated with compounds for 1 h room temperature, then assayed for cGMP production using Cisbio cGMP HTRF kit (62GM2PEC) according to manufacturer's instructions. The EC50s are calculated based on the amount of cGMP interpolated from the standard curve, using a 4-parameter sigmoidal dose-response.

Protein sequences, listed by entry. Tags and fused reporters are not part of them. Lines headed by an entry give the natural chain unless they say otherwise; changes in a name come on top.
UniProt Q02108, whole entry partner: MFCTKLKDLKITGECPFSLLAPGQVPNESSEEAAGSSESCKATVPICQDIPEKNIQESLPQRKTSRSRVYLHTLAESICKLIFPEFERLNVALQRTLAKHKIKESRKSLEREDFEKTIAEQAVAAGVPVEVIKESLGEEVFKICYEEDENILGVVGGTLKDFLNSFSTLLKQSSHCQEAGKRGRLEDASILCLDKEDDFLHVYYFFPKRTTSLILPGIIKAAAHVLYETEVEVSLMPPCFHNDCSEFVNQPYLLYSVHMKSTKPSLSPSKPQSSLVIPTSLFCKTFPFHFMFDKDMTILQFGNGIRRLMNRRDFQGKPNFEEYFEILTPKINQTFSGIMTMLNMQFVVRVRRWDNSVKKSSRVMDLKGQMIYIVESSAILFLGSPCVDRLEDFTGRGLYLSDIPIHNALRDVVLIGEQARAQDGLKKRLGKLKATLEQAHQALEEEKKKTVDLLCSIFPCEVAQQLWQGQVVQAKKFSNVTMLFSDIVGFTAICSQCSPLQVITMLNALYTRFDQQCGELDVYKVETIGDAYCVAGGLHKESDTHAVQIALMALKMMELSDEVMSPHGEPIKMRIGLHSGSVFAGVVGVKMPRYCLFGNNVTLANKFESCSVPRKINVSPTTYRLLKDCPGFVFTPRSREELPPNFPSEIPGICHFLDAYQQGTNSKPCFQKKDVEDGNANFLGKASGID
UniProt Q02153: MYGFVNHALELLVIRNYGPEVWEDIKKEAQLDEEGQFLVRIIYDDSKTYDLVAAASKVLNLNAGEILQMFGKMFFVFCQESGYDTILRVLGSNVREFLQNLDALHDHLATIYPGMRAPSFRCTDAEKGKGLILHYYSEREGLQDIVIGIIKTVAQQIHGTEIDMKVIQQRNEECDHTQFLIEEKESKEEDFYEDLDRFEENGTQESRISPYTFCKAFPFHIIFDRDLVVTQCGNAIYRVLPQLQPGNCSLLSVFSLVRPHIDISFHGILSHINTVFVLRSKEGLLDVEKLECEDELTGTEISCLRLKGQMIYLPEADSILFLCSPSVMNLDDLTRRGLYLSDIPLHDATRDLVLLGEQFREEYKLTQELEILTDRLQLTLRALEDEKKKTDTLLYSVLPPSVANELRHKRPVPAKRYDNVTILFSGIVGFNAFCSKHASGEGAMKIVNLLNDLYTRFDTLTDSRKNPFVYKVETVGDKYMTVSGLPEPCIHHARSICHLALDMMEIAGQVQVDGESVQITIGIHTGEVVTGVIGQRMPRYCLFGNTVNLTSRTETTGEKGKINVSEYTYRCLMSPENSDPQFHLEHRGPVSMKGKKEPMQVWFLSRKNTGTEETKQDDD

In assay [2] the target is soluble guanylate cyclase (human GUCYA3 and GUCYB3) overexpressed in CHO cells (Homo sapiens (Human), UniProt Q02153). The description is as above. The class given is cell-based. To be noted: CHO GUCY clone 8E10, cGMP production, assay buffer with 1 mM IBMX and 20 uM ODQ, 1 h room temperature; minimum quantification limit 0.5 nM (listed 0.5 nM means ≤0.5 nM).
Excerpt: as §1

`CCc1cc(Cn2cc(C)c3cccc(-c4cccc(-n5ncc(C(=O)O)c5C(F)(F)F)n4)c32)ccc1C1CCN(C(=O)C2CC2)CC1` [Example 28, 1-(6-(1-(4-(1-(Cyclopropanecarbonyl)piperidin-4-yl)-3-ethylbenzyl)-3-methyl-1H-indol-7-yl)pyridin-2-yl)-5-(trifluoromethyl)-1H-pyrazole-4-carboxylic Acid]: in assay [1], the midpoint of the response, the EC50, lay at 4.5 nM.

The compound “(−)-1-(6-(1-(4-(1-(Cyclopropanecarbonyl)piperidin-4-yl)-3-ethylbenzyl)-2-methylindolin-7-yl)pyridin-2-yl)-8-ethyl-1H-pyrazole-4-carboxylic Acid [Example 22b]” yielded an EC50 in assay [2] of 4.5 nM.

Take “(−)-6-Ethyl-1-(6-(3-((3-ethyl-4-(1-(S)-2-hydroxybutanoyl)piperidin-4-yl)phenyl)amino)-2,3-dihydro-1H-inden-4-yl)pyridin-2-yl)-1H-pyrazole-4-carboxylic Acid [Example 50b]”: in assay [2], the EC50 is 12 nM.
